Assay results: paper PMC3961306, “Comparison of the Cancer Gene Targeting and Biochemical Selectivities of All Targeted Kinase Inhibitors Approved for Clinical Use” (PLoS ONE, 2014)

By UniProt entry, the sequences of proteins in these tests, tags left out. Residues count along the entry.
UniProt Q13153, whole entry, stated change not applied: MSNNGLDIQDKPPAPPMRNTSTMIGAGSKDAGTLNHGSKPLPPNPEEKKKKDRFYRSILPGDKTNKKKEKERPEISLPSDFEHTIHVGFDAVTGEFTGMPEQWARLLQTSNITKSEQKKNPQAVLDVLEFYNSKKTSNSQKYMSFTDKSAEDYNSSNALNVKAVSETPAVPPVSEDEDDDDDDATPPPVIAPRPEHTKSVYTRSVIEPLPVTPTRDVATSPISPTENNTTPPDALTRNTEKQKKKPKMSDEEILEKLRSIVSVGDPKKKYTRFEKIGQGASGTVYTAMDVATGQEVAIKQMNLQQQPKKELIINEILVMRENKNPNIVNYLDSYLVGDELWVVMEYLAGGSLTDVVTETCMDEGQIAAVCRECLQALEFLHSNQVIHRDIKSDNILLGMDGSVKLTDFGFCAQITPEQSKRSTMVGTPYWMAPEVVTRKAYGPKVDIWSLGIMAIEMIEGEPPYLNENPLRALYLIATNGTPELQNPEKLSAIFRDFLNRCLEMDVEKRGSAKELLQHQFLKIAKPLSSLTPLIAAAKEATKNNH
UniProt P17948, 27-1338, stated change not applied: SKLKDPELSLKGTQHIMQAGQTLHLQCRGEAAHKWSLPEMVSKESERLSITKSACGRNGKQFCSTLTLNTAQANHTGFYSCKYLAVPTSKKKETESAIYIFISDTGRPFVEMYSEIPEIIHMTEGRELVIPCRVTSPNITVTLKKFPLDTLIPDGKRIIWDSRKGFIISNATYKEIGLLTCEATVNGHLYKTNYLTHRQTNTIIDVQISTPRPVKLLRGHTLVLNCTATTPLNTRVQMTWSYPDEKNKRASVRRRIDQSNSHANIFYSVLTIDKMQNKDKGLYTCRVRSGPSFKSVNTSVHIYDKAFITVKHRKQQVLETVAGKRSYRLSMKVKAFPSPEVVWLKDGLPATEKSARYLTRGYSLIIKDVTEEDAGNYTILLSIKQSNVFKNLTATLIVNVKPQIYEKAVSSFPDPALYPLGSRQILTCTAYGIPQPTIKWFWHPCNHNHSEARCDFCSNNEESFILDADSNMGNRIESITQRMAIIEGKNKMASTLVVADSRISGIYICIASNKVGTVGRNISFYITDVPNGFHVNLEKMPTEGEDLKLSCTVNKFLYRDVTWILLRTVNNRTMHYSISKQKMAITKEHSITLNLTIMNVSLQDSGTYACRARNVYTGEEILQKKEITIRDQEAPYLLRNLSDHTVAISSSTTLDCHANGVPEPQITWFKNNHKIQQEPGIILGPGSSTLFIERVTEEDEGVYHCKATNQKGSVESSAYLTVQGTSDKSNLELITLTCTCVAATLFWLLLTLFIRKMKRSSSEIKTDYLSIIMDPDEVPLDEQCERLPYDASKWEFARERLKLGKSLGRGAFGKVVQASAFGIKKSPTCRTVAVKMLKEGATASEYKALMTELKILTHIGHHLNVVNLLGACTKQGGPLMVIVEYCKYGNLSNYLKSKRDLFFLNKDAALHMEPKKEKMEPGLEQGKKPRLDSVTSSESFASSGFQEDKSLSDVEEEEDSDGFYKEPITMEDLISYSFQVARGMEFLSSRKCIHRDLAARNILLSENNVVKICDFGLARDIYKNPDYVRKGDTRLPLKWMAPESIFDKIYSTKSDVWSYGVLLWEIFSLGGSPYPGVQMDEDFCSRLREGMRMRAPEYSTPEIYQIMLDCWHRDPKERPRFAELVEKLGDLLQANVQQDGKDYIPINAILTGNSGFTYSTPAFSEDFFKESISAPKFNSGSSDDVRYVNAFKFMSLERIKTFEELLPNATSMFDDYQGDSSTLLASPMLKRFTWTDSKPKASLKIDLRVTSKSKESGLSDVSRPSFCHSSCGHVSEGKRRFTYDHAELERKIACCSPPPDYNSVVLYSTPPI
UniProt P50750, whole entry, stated change not applied: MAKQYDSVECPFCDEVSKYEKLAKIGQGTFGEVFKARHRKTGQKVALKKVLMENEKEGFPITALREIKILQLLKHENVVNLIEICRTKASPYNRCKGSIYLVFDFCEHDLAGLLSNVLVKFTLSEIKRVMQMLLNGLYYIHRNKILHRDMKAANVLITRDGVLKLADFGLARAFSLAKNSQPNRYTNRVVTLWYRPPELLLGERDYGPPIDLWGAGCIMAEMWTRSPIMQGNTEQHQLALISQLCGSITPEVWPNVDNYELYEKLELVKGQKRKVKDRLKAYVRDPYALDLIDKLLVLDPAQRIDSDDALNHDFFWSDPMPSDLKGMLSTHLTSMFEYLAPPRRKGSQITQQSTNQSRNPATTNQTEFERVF
UniProt P68400, whole entry, stated change not applied: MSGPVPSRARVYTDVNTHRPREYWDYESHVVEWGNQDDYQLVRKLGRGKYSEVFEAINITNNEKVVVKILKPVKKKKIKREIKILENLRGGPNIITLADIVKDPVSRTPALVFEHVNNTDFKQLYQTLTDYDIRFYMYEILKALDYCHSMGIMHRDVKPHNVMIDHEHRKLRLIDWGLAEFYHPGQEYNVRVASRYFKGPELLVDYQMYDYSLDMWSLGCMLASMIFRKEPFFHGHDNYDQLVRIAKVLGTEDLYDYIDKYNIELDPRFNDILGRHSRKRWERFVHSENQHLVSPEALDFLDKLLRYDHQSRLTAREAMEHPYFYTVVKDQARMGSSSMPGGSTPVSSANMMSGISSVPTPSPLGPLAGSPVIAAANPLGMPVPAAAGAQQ
UniProt P10721, 26-976, stated change not applied: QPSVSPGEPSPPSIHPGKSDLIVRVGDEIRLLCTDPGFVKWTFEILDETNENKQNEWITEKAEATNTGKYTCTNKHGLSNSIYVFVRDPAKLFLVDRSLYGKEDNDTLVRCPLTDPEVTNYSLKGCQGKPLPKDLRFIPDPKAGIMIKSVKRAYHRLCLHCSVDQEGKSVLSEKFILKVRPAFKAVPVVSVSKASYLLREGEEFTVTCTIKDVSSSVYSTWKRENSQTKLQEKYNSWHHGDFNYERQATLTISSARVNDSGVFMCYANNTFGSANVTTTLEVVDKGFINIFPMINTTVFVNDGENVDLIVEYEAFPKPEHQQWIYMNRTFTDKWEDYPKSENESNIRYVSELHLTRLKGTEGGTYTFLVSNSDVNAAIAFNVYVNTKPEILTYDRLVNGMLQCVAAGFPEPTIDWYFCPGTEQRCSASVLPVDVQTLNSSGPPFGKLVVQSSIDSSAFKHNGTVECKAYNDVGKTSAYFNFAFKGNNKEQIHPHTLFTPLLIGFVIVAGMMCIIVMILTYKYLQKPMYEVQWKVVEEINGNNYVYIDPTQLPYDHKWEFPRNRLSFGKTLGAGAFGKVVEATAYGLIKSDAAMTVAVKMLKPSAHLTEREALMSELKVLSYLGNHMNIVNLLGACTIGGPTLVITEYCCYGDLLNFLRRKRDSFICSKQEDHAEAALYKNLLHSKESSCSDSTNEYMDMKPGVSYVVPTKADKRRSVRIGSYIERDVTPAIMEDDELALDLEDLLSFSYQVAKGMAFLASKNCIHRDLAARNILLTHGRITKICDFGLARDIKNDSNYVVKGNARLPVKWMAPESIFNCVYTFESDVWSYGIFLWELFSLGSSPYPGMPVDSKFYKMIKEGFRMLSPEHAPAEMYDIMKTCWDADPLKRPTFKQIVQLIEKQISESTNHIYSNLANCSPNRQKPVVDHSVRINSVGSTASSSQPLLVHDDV
UniProt P53350, whole entry, stated change not applied: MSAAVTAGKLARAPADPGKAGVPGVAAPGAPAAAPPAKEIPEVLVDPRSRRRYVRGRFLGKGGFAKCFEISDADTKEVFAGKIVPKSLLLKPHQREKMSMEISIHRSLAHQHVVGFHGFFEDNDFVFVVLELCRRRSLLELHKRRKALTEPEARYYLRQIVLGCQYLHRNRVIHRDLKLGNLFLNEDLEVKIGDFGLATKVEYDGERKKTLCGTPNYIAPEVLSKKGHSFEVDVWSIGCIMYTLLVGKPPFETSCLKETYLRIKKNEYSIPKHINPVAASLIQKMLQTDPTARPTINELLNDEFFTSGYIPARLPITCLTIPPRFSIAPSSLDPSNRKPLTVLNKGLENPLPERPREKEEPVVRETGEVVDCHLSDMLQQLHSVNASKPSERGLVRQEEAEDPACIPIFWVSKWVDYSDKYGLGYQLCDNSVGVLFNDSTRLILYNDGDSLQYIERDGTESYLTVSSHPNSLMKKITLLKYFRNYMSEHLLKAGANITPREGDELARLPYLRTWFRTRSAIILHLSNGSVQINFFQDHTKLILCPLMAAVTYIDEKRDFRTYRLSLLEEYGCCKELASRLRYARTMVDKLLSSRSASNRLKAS
UniProt Q13233, whole entry, stated change not applied: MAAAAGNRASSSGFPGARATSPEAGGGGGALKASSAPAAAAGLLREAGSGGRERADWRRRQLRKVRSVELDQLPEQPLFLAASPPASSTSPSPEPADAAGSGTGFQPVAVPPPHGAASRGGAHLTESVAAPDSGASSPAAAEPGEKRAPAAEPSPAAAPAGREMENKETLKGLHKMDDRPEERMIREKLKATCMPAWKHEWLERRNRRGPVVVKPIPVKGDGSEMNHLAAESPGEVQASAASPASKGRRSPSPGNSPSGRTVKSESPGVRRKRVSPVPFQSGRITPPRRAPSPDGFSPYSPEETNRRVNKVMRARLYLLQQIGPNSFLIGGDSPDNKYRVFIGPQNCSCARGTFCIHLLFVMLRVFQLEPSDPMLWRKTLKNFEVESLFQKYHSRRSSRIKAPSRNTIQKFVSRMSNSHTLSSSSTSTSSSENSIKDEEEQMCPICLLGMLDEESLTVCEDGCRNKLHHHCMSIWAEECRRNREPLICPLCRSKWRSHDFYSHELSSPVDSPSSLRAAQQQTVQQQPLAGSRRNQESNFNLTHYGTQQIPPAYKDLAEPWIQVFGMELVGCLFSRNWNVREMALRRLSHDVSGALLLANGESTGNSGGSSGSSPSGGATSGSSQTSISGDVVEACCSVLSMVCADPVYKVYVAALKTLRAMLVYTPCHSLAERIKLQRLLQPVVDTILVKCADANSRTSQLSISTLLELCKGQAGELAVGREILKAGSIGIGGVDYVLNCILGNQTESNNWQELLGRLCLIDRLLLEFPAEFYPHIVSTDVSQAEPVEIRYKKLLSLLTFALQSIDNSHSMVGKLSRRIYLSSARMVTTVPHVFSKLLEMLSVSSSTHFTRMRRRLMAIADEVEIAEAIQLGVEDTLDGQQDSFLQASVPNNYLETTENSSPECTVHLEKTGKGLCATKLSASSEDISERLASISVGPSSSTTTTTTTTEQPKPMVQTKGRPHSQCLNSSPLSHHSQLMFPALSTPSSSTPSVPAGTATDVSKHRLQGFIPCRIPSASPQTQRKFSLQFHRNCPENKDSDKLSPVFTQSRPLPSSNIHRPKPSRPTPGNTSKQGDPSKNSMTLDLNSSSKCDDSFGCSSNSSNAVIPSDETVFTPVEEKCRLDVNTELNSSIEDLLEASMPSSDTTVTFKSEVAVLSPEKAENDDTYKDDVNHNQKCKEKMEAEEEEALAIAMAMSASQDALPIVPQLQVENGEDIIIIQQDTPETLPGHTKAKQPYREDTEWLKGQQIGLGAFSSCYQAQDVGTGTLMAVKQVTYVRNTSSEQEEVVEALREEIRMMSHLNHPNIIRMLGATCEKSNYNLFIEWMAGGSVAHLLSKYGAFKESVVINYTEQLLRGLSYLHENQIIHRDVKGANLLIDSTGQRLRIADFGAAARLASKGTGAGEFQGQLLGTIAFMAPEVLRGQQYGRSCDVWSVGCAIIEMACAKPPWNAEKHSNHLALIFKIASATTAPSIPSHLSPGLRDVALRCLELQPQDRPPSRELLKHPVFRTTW
UniProt P11802, whole entry, stated change not applied: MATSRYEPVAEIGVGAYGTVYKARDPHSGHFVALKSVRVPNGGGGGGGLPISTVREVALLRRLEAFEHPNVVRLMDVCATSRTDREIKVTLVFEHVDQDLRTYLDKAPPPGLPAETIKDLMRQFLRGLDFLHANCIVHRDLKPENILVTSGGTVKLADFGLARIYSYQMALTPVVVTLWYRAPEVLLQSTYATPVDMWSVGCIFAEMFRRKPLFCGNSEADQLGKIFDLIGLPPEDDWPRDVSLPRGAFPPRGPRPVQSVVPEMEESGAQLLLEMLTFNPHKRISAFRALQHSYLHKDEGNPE
UniProt P49760, whole entry, stated change not applied: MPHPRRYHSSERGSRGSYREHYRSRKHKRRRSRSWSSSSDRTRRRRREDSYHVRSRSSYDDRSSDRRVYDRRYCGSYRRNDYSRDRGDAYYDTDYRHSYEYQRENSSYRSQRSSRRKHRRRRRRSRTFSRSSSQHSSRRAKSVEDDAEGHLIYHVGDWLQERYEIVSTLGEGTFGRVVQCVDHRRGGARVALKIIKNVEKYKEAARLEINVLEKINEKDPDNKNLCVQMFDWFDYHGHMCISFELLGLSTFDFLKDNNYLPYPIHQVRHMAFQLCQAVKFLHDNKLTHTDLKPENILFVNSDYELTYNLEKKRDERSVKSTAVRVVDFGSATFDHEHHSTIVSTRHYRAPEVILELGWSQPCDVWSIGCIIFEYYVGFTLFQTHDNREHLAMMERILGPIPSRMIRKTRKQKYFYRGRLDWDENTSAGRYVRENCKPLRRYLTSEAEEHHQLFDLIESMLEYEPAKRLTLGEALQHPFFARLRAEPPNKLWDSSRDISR

How the values were obtained:
Experiment in all cases: Kinase profiling in a biochemical assay panel (mobility shift assays and ELISA), %-inhibition at 1 μM; selectivity entropy
[1] = target: panel of more than 300 wild-type and mutant kinases (313 kinase panel) (Homo sapiens, UniProt Q13153)
[2] = target: panel of more than 300 wild-type and mutant kinases (313 kinase panel) (Homo sapiens, UniProt Q86Z02)
[3] = target: panel of more than 300 wild-type and mutant kinases (313 kinase panel) (Homo sapiens, UniProt P17948)
[4] = target: panel of more than 300 wild-type and mutant kinases (313 kinase panel) (Homo sapiens, UniProt P50750)
[5] = target: T1, panel of more than 300 wild-type and mutant kinases (313 kinase panel) (Homo sapiens, UniProt P54753)
T1 sequence (P54753 34-998): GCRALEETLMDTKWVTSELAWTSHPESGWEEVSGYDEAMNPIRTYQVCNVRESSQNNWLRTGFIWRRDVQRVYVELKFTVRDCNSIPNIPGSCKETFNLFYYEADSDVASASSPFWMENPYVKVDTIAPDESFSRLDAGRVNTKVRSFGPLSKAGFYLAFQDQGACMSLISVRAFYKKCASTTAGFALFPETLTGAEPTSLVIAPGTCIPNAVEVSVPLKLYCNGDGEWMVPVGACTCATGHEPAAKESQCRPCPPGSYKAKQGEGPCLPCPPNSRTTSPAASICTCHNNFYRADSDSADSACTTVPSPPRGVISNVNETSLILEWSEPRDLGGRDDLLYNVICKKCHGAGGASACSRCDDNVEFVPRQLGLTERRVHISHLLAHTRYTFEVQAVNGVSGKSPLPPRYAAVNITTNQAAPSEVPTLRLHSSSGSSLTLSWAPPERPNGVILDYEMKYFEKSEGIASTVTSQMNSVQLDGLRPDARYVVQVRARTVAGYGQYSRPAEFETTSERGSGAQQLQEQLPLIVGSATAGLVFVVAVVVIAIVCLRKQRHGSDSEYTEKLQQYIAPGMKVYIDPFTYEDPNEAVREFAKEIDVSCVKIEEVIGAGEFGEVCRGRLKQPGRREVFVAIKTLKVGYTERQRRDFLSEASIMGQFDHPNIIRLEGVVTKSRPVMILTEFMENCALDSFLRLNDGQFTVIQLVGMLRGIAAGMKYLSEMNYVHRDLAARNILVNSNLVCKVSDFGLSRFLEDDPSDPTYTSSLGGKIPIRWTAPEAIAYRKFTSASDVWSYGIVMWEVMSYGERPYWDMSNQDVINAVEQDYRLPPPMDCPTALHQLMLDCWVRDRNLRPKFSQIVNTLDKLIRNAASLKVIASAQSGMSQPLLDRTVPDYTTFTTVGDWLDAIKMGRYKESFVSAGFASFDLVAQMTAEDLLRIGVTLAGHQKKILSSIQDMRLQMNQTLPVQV

[6] = target: panel of more than 300 wild-type and mutant kinases (313 kinase panel) (Homo sapiens, UniProt P68400)
[7] = target: panel of more than 300 wild-type and mutant kinases (313 kinase panel) (Homo sapiens, UniProt P10721)
[8] = target: panel of more than 300 wild-type and mutant kinases (313 kinase panel) (Homo sapiens, UniProt O00311)
[9] = target: panel of more than 300 wild-type and mutant kinases (313 kinase panel) (Homo sapiens, UniProt P53350)
[10] = target: panel of more than 300 wild-type and mutant kinases (313 kinase panel) (Homo sapiens, UniProt Q13233)
[11] = target: panel of more than 300 wild-type and mutant kinases (313 kinase panel) (Homo sapiens, UniProt P11802)
[12] = target: panel of more than 300 wild-type and mutant kinases (313 kinase panel) (Homo sapiens, UniProt P49760)
[13] = target: T2, panel of more than 300 wild-type and mutant kinases (313 kinase panel) (Homo sapiens, UniProt O14965)
T2 sequence (O14965 1-403): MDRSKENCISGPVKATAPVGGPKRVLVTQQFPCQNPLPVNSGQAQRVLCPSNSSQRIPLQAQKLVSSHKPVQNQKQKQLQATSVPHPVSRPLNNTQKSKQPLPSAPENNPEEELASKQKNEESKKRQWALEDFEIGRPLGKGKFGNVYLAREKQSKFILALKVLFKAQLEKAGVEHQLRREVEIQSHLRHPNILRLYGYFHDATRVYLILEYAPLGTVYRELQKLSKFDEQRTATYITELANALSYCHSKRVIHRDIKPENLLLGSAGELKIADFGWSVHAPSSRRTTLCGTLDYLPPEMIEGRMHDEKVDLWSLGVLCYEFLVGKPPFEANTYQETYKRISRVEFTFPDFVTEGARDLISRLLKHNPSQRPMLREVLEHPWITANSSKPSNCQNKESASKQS

SMILES	%-inhibition, AurA/TPX2 ([13]; 1 µM)	%-inhibition of PAK1 ([1]; 1 µM)	%-inhibition of HIPK1 ([2]; 1 µM)	%-inhibition of FLT1 ([3]; 1 µM)	%-inhibition, CDK9/CycT1 ([4]; 1 µM)	%-inhibition of EPHB3 ([5]; 1 µM)	%-inhibition, CK2α1/β ([6]; 1 µM)	%-inhibition of KIT ([7]; 1 µM)	%-inhibition, CDC7/ASK ([8]; 1 µM)	%-inhibition of PLK1 ([9]; 1 µM)	%-inhibition of MAP3K1 ([10]; 1 µM)	%-inhibition, CDK4/CycD3 ([11]; 1 µM)	%-inhibition, CLK2 ([12]; 1 µM)	%-inhibition, AurA ([13]; 1 µM)	other results
CNC(=O)c1ccccc1Sc1ccc2c(/C=C/c3ccccn3)n[nH]c2c1 [axitinib]	101%														%-inhibition of PAK1 ([1]; kinase PAK1, 1 μM): -6.53%; %-inhibition of HIPK1 ([2]; kinase HIPK1, compound at 1 μM): -6.53%; %-inhibition of FLT1 ([3]; kinase FLT1, compound at 1 μM): 102%; %-inhibition, CDK9/CycT1 ([4]; kinase CDK9/CycT1, 1 μM compound): -1.79%; %-inhibition of EPHB3 ([5]; kinase EPHB3, compound at 1 μM): -1.88%; %-inhibition, CK2α1/β ([6]; kinase CK2α1/β, 1 μM compound): -6%; %-inhibition of KIT ([7]; kinase KIT, compound at 1 μM): 99%; %-inhibition, CDC7/ASK ([8]; kinase CDC7/ASK, 1 μM compound): -7%; %-inhibition of PLK1 ([9]; kinase PLK1, 1 μM): -3.71%; %-inhibition of MAP3K1 ([10]; kinase MAP3K1, compound at 1 μM): -2.64%; %-inhibition, CDK4/CycD3 ([11]; kinase CDK4/CycD3, 1 μM compound): -5%; %-inhibition, CLK2 ([12]; kinase CLK2, 1 μM compound): -3.71%; %-inhibition, AurA ([13]; kinase AurA, 1 μM compound): 100%
COc1cc2ncnc(Nc3ccc(F)c(Cl)c3)c2cc1OCCCN1CCOCC1 [gefitinib]	-7%	10%	5.48%	14%	0.25%	9%	-1.13%	36%	4%	-6.65%	10%	1.76%	-7%	9%	
C[C@@H]1CCN(C(=O)CC#N)C[C@@H]1N(C)c1ncnc2[nH]ccc12 [tofacitinib]	58%	-4.48%	-7.54%	8.49%	-2.14%	-0.341%	-6.65%	3.63%	-4%	1.47%	-3.35%	-5%	-14%	6%	
